The results in this text go back to patent US20060167229A1, “Biologically active peptide conjugates” (priority 2002, published 2006).

One test has as its system thymus gland. Description: Immunity organ weight test, thymus gland index. Format: in vivo, BALB/c mice. The conditions noted are these: healthy mice, saline 0.12 ± 0.02. On the procedure: One day after the last test substance administration (day 16), the liver, spleen, and thymus gland were separated and blotted dry with filter paper and weighed. The phagocytosis index α was calculated as below: α=(^3√{square root over ( )}K)(W÷WLS)
Thymus gland index (%)=(thymus weight/body weight)×100%

A further test concerns mononuclear phagocyte. Kind of test: Phagocytotic function of mononuclear phagocyte in mice with transplanted S180 sarcoma. Format: in vivo, BALB/c mice. As to conditions: controls: IL-2, IFN-γ 3 × 10^5 IU/kg, cyclophosphamide 20 mg/kg, saline 5.38 ± 0.85. On the procedure:
Intraperitoneal injection, once per day. […] Treatment of all groups with testing substance lasted for 30 days or until the animal died unless otherwise specified.
Stock S180 sarcoma cells were incubated in DMEM/F12 medium supplemented with 10% fetal bovine serum, 37° C., 5% CO2 for 72 hrs, then washed 3-4 times with Hank's solution at room temperature. Adjust the cell concentration to 1-2×10^9 per litre with Hank's solution. […] The mice were killed by cervical vertebra dislocation. Vigorously growing and non-disrupted tumor masses were harvested and washed clean with sterile saline. The tissue was dispersed in saline to a homogenous cell suspension, in a ratio of 1 g tissue to 4 ml saline. The sarcoma bearing mice model was prepared with an injection of 0.2 ml cell suspension through the armpit. […]
2.1 The effect of peptides on the phagocytotic function of mononuclear phagocyte in mice with S180 sarcoma was analysed by injecting mice from the tail vein with 0.1 ml/10 g body weight of Indian ink (1:5 dilution with normal saline) on the second day after the last test substance administration. […] The outline clear index K was calculated by the following formula: K=(lgA1−lgA2)÷(t2−t1)
After the phagocytosis index study, the mice were killed by cervical vertebra dislocation. […] The phagocytosis index a was calculated as below: α=(^3√{square root over ( )}K)×(W÷WLS)

As for “IL-2: recombinant human IL (rhIL)-2, Shanghai Huaxin Biotech Inc.; positive control”, the “weight of thymus gland (thymus gland index), X ± SD (%)” value was determined as 0.14 ± 0.04% in the test with thymus gland (peptide 0.5 μg/kg/day i.p. 15 days (IFN-γ, IL-2 3×10^5 IU/kg/day)); 0.14 ± 0.04% with thymus gland (peptide 5 μg/kg/day i.p. 15 days (IFN-γ, IL-2 3×10^5 IU/kg/day)); 0.14 ± 0.04% in the test on thymus gland (peptide 50 μg/kg/day i.p. 15 days (IFN-γ, IL-2 3×10^5 IU/kg/day)); 0.14 ± 0.03% with thymus gland (peptide 500 μg/kg/day i.p. 15 days (IFN-γ, IL-2 3×10^5 IU/kg/day)). The Phagocytosis index in the test on mononuclear phagocyte amounted to 6.96 ± 1.37.
